Patent US4956294A, “Culture of Streptoverticillium synroense for producing an antibacterial” (Merck & Co., Inc., priority 1989, dated 1990)

How the values were obtained:
Format in all cases: cell-based
Strep. faecalis 2864 [1] = test: Agar dilution, antagonist-free medium; settings: Enterococcus faecalis, inoculum 10^4 cfu/spot, 35° C., 20 hours
S. aureus 2868 = test: Agar dilution, trypticase soy agar; settings: Staphylococcus aureus, inoculum 10^4 cfu/spot, 35° C., 20 hours
S. aureus 2865 = test: Agar dilution, trypticase soy agar; settings: Staphylococcus aureus, inoculum 10^4 cfu/spot, 35° C., 20 hours
E. coli DC2 4353 = test: Agar dilution, trypticase soy agar; settings: Escherichia coli, DC24353; inoculum 10^4 cfu/spot, 35° C., 20 hours
Strep. faecalis 2864 [2] = test: Agar dilution, trypticase soy agar; settings: Enterococcus faecalis, inoculum 10^4 cfu/spot, 35° C., 20 hours
Ent. aerogenes 2828 = test: Agar dilution, trypticase soy agar; settings: Klebsiella aerogenes, inoculum 10^4 cfu/spot, 35° C., 20 hours
Ps. aeruginosa 2835 = test: Agar dilution, trypticase soy agar; settings: Pseudomonas aeruginosa, inoculum 10^4 cfu/spot, 35° C., 20 hours
Ps. aeruginosa 4279 = test: Agar dilution, trypticase soy agar; settings: Pseudomonas aeruginosa, inoculum 10^4 cfu/spot, 35° C., 20 hours

Row | SMILES | MIC (Strep. faecalis 2864 [1]) [µg/mL] | MIC (S. aureus 2868) [µg/mL] | MIC (S. aureus 2865) [µg/mL] | MIC (E. coli DC2 4353) [µg/mL] | MIC (Strep. faecalis 2864 [2]) [µg/mL] | MIC (Ent. aerogenes 2828) [µg/mL] | MIC (Ps. aeruginosa 2835) [µg/mL] | MIC (Ps. aeruginosa 4279) [µg/mL]
1 | N[C@@H]1CONC1=O [D-Cycloserine, D-cycloserine, reference compound] | 4 (≈ 39.2 µM) |  |  |  |  |  |  | 
2 | CO[C@@]1(NC(=O)Cc2cccs2)C(=O)N2C(C(=O)O)=C(COC(N)=O)CS[C@@H]21 [CEFOXITIN, Cefoxitin, reference compound] |  | 4 (≈ 9.36 µM) | 2 (≈ 4.68 µM) | 2 (≈ 4.68 µM) |  |  |  | 
3 | C[C@H](CNC(=O)[C@H]1N=C(c2cccc(O)c2O)O[C@@H]1C)C(=O)N[C@@H]1CCCN(O)C1=O [L-654,040, 2-(2,3-dihydroxyphenyl)-4,5-dihydro-N-[3-[(1-hydroxy-2-oxo-3(R)-piperidinyl)-amino]-2(R)-methyl-3-oxopropyl]-5R-methyl-4S-oxazolecarboxamide] | > 256 |  | 64 (≈ 147 µM) |  | > 128 | > 128 | > 128 | > 128

Values after ≈ are worked out from the molar mass of the structure shown.
